Chains of the proteins cited; added tags and fusions are not shown.
Importin subunit beta-1 (Homo sapiens), Q14974, UniProt Q14974, whole entry, looked up: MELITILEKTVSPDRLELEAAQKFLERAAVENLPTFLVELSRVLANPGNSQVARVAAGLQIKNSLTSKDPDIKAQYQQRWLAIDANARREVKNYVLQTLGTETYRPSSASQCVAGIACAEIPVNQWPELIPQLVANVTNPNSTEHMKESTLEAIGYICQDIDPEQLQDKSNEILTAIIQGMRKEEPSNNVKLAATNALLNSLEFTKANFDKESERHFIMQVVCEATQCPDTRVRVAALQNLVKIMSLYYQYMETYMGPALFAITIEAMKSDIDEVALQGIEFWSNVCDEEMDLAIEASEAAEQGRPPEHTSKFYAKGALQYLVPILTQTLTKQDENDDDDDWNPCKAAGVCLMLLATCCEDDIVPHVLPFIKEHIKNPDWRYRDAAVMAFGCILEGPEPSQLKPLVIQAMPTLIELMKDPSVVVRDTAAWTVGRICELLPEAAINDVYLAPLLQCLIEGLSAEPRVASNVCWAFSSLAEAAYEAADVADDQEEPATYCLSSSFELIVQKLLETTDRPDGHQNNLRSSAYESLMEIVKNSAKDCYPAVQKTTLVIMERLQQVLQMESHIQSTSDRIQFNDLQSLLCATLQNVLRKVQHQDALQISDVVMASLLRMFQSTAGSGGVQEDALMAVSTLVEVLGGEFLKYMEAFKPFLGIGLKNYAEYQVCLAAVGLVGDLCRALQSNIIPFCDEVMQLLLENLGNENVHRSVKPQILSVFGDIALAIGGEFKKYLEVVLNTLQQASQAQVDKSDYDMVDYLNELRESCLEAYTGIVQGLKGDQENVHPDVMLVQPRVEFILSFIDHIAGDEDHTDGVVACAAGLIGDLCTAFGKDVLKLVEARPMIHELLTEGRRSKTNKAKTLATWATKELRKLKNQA
Rap guanine nucleotide exchange factor 4 (Homo sapiens), Q8WZA2, UniProt Q8WZA2, whole entry, looked up: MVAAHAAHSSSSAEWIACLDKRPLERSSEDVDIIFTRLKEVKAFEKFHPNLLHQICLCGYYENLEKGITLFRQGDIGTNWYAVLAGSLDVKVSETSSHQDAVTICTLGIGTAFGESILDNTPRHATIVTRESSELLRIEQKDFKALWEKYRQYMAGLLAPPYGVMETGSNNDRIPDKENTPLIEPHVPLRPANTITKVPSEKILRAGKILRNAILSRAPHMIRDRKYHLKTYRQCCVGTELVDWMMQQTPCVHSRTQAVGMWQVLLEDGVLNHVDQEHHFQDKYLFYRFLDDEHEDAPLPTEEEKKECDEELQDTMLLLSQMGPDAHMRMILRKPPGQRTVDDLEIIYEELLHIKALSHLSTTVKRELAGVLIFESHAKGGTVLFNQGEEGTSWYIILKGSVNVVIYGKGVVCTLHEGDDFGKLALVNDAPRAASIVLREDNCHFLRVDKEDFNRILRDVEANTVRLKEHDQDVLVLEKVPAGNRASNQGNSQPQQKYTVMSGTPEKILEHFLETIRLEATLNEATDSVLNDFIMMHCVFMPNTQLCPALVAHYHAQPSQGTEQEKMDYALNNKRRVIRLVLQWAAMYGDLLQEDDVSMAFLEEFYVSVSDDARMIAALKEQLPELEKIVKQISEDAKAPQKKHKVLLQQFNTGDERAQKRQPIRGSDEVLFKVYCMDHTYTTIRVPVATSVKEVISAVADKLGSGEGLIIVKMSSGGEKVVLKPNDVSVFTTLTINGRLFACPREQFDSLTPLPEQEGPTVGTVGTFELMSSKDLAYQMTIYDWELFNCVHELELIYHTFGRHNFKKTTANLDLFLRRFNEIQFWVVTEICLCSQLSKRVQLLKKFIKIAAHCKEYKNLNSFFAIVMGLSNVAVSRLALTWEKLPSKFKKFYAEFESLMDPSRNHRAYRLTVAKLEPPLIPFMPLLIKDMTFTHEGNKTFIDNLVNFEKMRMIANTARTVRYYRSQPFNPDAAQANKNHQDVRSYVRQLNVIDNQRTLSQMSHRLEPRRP

# Screening data from PubChem.
# Rows were chosen to be rich in hits. Some 0.43% of all compounds tested hit in one or more screens of this group.
# EPAC2 agonist = qHTS for Agonist of cAMP-regulated guanine nucleotide exchange factor 4 (EPAC2): primary screen. EPAC2 activation, biochemical qHTS; response scale: 100% = 6.5 mM cAMP response. Potency, µM (titrated, usually from 154 µM), hits mostly activators. 360,000 compounds, 0.079% hits; note: nearly all actives have a fitted effect of over 50% in size
#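 Fluorescence exchange assay: 100 nM EPAC2 with 250 nM RAP1B-BODIPY-GDP and 50 uM GDP; compounds tested as a concentration-titration series (qHTS). Loss of Rap1-bound BODIPY-GDP fluorescence read at 480/540 nm; data normalized to 6.5 mM cAMP.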
# Rango release inh = qHTS Assay for Inhibitors of RanGTP induced Rango (Ran-regulated importin-beta cargo) - Importin beta complex dissociation | Biochemical FRET Rango-importin beta, RanGTP-induced dissociation | Potency, µM (highest dose often 46.1 µM) | AID 540253, 2011 | Snurportin-1 (Homo sapiens) + GTP-binding nuclear protein Ran (Homo sapiens) + Importin … | 340,000 compounds, 0.071% hits; calls by dose curve; note: nearly all actives have a fitted effect of over 45% in size
#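 Quantitative HTS using a FRET biosensor: 0.1 uM Rango, 0.25 uM importin beta, 0.6 uM Ran, 2 mM GTP, 0.2 uM RCC1 final, PBS with DTT, Tween-20 and BSA. Post-read taken 45 min after Ran addition.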
# Rango-impB inh = qHTS Assay for Inhibitors of Rango (Ran-regulated importin-beta cargo) - Importin beta complex formation. Rango CFP/YFP FRET sensor + importin beta, 45 min. 340,000 compounds, 0.031% hits. Potency, µM (top dose mostly 92.2 µM). AID 540263, 2011. Importin subunit beta-1 (Homo sapiens), Q14974; calls by dose curve; note: nearly all actives have a fitted effect of over 15% in size
#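 FRET biosensor (snurportin 1 IBB flanked by EYFP and cerulean), 50 nM, with compound 5 min, then 0.125 microM importin beta in PBS, 1 mM DTT, 0.02% Tween-20, 0.1% BSA. CFP/YFP ratio read after 45 min at room temperature; pre-read flags interference.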
# EPAC2 antagonist = qHTS for Antagonist of cAMP-regulated guanine nucleotide exchange factor 2 (EPAC2): primary screen | 360,000 compounds, 0.18% hits | Potency, µM (doses to about 114 µM), usual class: inhibitors | AID 720708, 2013 | Rap guanine nucleotide exchange factor 4 (Homo sapiens), Q8WZA2 | EPAC2 GEF exchange of Rap1B-BODIPY-GDP, fluorescence; note: nearly all actives have a fitted effect of over 45% in size
# EPAC1 antagonist = qHTS for Antagonist of cAMP-regulated guanine nucleotide exchange factor 3 (EPAC1): primary screen. Rap guanine nucleotide exchange factor 3 (Homo sapiens), O95398. EPAC1 GEF assay, Rap1b-BODIPY-GDP exchange fluorescence. Potency, µM (doses to about 115 µM), hits mostly inhibitors. 360,000 compounds, 0.14% hits; note: nearly all actives have a fitted effect of over 50% in size
# EPAC1 ag = qHTS for Agonist of cAMP-regulated guanine nucleotide exchange factor 3 (EPAC1): primary screen; Rap guanine nucleotide exchange factor 3 (Homo sapiens), O95398; EPAC1 agonist qHTS, biochemical assay; response scale: 100% = response to 6.5 mM cAMP; Potency, µM (series often up to 154 µM), usual class: activators; 360,000 compounds, 0.073% hits; AID 720707, 2013; note: nearly all actives have a fitted effect of over 60% in size
#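 Read-out is the fluorescence drop as BODIPY-GDP leaves Rap1B (480 nm excitation, 540 nm emission), recorded every 5 minutes over 30 minutes. Reactions held 100 nM EPAC1, 250 nM Rap1B–BODIPY-GDP and 50 uM GDP, with 6.5 mM cAMP setting full activation.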
# Hits are given with their value; – = inactive; ? = inconclusive; · = not tested or not shown. Unless noted, calls come from the whole dose curve; as a rule, active = well fitted curve in the direction sought with a large enough effect; inconclusive = small, poorly fitted or top-dose-only effect, or another doubt; inactive = no such curve, though single readings can be large; an effect the other way counts as inactive or inconclusive.
SMILES,EPAC2 agonist,Rango release inh,Rango-impB inh,EPAC2 antagonist,EPAC1 antagonist,EPAC1 ag
COc1ccc(CN2C(=O)CN(S(C)(=O)=O)CC2(C)C(=O)Nc2c(C)cccc2C)cc1 (stereo not given),–,·,·,–,–,–
O=C(NCCN1CCC(n2c(=O)[nH]c3ccccc32)CC1)c1ccc(C(F)(F)F)cc1C(F)(F)F,–,·,·,–,?,–
COC(=O)C1=CN(c2ccc(F)cc2)C(N)=C(C#N)C1c1cccc(OC)c1OC (stereo not given),–,·,·,?,–,–
CC(C)NC(=O)C1(C)CSCC(=O)N1CC(F)(F)F (stereo not given),–,·,·,–,–,–
O=C(O)COc1ccccc1/C=N/Nc1ccc(S(=O)(=O)Nc2ccc(Cl)cc2)cc1[N+](=O)[O-],–,?,?,–,22µM,?
Cc1ccc(NS(=O)(=O)c2cccc3cccnc23)c(Br)c1,–,?,–,–,–,–
Cc1ccc(NS(=O)(=O)c2cccc3cccnc23)c(Cl)c1,–,–,–,28µM,–,–
COc1ccc(-c2ccc(C(=O)NC3CCCCC3)c3occc23)c(C)c1,–,·,·,–,–,–
CCN(CC)S(=O)(=O)c1ccc(C(=O)OCCN2C(=O)c3cccc4c(N5CCOCC5)ccc(c34)C2=O)cc1,–,?,?,–,–,?
CN(C)CCCN1C(=O)c2cccc3c(Br)ccc(c23)C1=O,–,?,?,–,–,–
CCCCNc1ccc2c3c(cccc13)C(=O)N(CCCC)C2=O,100µM,?,?,–,–,79µM
CC(=O)N(C(C)=O)N1C(=O)c2cccc3c(N4CCOCC4)ccc(c23)C1=O,–,?,?,–,?,112µM
CCCN1C(=O)c2cccc3c(N4CCCCC4)ccc(c23)C1=O,100µM,?,?,–,–,?
CC(=O)NC(c1ccccc1)c1nc(-c2cnc3ccccc3c2)cs1 (stereo not given),–,·,·,–,–,–
Cc1cccc(S(=O)(=O)NC(=O)C2(C)CCN2C(=O)Cc2cc(F)ccc2F)c1 (stereo not given),–,·,·,–,100µM,–
O=C1CCN2C=Nc3cccc4ccc1c2c34,89µM,?,?,–,–,63µM
O=c1c2ccccc2nc(/C=C/c2ccccc2)n1CCc1ccccc1,–,–,–,–,–,–
O=c1c2ccccc2nc(/C=C/c2cccnc2)n1CCc1ccccc1,–,–,–,–,79µM,–
O=C(NC1CCN(Cc2ccccc2)CC1)c1[nH]c(C(F)(F)F)nc1-c1ccccc1,–,·,·,–,–,–
COc1ccc(OC)c(NC(=O)CSc2nc(O)cc(=O)n2CC(C)C)c1,–,–,–,–,56µM,–
CC(C)(C)C(C(=O)NCc1ccccc1)N1CCN(CCN2CCOCC2)CC1 (stereo not given),–,·,·,–,–,–
Cc1cccc(C(=O)Oc2c(Br)cc(Br)cc2/C=N/NC(=O)c2ccncc2)c1,–,–,–,–,–,–
Cc1cc(C(=O)N/N=C/c2cc(Br)cc(Br)c2OC(=O)c2cccc(F)c2)n[nH]1,–,3.7µM,?,–,–,–
COc1ccc(CNC(=O)c2ccc3nc(C)c(N(C)Cc4ccc(NC(C)=O)cc4)n3c2)cc1,–,·,·,–,–,–
O=C(O)c1cc(N2N=C(C(F)(F)F)/C(=C/C=C/c3ccco3)C2=O)ccc1Cl,–,–,?,?,35µM,–
SMILES,EPAC2 agonist,Rango release inh,Rango-impB inh,EPAC2 antagonist,EPAC1 antagonist,EPAC1 ag
Cc1ccc(CNc2ncnc3ccc(-c4ccoc4C)cc23)o1,–,·,·,–,–,–
COc1c(OC(C)=O)c(=O)n2c3ccccc3c3ccnc1c32,–,–,21µM,–,–,–
COc1ccc(NC(=O)C(c2ccccc2)n2c(=O)c(-c3ccco3)nc3ccccc32)cc1 (stereo not given),–,·,·,–,–,–
O=c1[nH][nH]c(-c2ccccc2O)c1C(C[N+](=O)[O-])c1ccc(Br)cc1 (stereo not given),–,–,–,11µM,–,–
COc1ccc(C(C[N+](=O)[O-])c2c(C)[nH]n(-c3ccccc3)c2=O)cc1 (stereo not given),–,–,–,–,–,–
Cc1ccc(C(C[N+](=O)[O-])c2c(-c3ccccc3O)[nH][nH]c2=O)cc1 (stereo not given),–,–,–,11µM,–,–
O=C(Nc1ccc(-c2nc3ccc(NC(=O)c4cccs4)cc3[nH]2)cc1)c1cccs1,?,–,–,50µM,?,–
O=C(Nc1ccc2nc(-c3cccs3)[nH]c2c1)c1cccs1,–,–,–,–,–,–
CC(=O)Oc1ccc(Cn2c(C)c(C(=O)NCc3ccc4c(c3)OCCO4)sc2=O)cc1,–,·,·,–,–,–
CC(C)(C)NC(=O)C(c1ccc(C#N)cc1)n1c(=O)c(-c2ccco2)nc2ccccc21 (stereo not given),–,·,·,–,?,–
Cc1ccc(S(=O)(=O)/N=C2\C=C(Nc3ccc(O)cc3)C(=O)c3ccccc32)cc1,–,–,–,–,?,–
Cc1ccc(S(=O)(=O)/N=C2/C=C(Sc3ncn[nH]3)C(=O)c3ccccc32)cc1,–,–,–,20µM,45µM,–
CC(C)c1ccc(S(=O)(=O)/N=C2/C=C(Sc3ncn[nH]3)C(=O)c3ccccc32)cc1,–,–,–,89µM,56µM,–
O=C(Nc1c(-c2ccccc2)[nH][nH]c1=O)c1cccs1,–,·,·,–,–,–
COc1ccc(NC(=O)C2c3ccccc3OCC(=O)N2CC(F)(F)F)cc1 (stereo not given),–,·,·,–,–,–
CCOCCCNc1nc2c(C)cccn2c(=O)c1/C=C1\SC(=S)N(CC(C)C)C1=O,112µM,–,–,–,–,–
O=c1cc(-c2ccc(O)cc2)oc2c(-c3c(O)cc(O)c4c(=O)cc(-c5ccc(O)cc5)oc34)c(O)cc(O)c12,–,–,–,–,–,–
O=c1c(-c2c(O)cc(O)c3c(=O)cc(-c4ccc(O)cc4)oc23)c(-c2ccc(O)cc2)oc2cc(O)cc(O)c12,–,–,?,–,56µM,–
